The text below walks through data of patent US10947229B2, “Dimethyl amino azetidine amides as JAK inhibitors” (THERAVANCE BIOPHARMA R&D IP, LLC, priority 2018, dated 2021).

Chains of the proteins cited; added tags and fusions are not shown. Lines headed by an entry give the natural chain unless they say otherwise; changes in a name come on top.
UniProt P29597: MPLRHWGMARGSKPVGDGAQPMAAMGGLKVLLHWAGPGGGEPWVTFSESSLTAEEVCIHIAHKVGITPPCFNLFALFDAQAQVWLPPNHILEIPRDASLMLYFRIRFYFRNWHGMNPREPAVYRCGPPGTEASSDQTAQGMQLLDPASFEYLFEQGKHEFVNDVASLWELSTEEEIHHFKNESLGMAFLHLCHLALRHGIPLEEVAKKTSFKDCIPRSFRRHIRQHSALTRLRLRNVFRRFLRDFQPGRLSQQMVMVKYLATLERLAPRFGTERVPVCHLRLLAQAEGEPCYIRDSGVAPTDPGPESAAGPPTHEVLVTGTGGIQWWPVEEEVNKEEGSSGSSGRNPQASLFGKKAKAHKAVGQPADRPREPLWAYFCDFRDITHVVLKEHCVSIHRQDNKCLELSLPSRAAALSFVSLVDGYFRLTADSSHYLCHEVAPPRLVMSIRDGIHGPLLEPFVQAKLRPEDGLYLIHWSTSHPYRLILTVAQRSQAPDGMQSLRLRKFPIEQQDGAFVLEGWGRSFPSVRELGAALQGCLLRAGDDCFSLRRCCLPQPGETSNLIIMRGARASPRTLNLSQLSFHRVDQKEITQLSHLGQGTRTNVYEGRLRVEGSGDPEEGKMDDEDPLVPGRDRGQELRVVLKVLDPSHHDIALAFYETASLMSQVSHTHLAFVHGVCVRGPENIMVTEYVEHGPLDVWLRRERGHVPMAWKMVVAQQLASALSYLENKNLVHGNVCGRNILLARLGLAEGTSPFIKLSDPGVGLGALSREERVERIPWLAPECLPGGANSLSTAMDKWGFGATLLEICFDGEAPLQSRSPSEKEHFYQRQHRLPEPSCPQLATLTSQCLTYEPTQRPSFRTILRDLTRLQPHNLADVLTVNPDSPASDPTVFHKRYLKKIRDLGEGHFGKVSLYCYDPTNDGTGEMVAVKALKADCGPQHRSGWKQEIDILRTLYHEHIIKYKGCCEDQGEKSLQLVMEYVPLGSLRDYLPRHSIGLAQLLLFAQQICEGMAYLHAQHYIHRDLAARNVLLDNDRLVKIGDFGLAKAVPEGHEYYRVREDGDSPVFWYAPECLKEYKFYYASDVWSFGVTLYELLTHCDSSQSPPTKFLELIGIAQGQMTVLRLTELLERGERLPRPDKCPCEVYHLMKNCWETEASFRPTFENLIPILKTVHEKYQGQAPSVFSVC
UniProt P52333: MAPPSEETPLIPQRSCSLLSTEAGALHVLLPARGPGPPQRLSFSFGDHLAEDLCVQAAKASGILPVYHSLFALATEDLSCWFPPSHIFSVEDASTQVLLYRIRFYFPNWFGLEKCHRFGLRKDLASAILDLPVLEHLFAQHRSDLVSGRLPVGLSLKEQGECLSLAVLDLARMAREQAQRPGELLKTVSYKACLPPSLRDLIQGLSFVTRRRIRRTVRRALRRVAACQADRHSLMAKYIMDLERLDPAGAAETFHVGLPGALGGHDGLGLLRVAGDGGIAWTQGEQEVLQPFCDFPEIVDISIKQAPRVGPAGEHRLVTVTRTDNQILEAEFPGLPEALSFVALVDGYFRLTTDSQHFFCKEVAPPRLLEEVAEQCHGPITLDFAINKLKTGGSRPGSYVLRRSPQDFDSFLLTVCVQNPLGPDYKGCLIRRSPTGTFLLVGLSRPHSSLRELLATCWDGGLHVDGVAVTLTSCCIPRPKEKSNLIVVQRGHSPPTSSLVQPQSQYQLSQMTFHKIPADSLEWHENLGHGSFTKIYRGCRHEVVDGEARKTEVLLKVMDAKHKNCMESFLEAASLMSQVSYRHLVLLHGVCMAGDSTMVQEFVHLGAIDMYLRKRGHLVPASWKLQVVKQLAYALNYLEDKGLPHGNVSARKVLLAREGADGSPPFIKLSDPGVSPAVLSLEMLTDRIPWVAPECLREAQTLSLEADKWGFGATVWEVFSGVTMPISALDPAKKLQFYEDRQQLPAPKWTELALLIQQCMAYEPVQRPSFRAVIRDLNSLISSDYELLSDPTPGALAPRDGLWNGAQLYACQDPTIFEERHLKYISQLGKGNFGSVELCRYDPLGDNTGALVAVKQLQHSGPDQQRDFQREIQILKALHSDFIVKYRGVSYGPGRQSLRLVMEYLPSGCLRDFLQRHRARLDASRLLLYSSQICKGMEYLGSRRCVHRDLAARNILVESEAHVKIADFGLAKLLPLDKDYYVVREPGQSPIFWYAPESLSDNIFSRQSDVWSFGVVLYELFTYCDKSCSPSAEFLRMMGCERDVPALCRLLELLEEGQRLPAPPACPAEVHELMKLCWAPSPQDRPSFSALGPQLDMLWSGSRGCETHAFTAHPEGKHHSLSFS
UniProt P23458: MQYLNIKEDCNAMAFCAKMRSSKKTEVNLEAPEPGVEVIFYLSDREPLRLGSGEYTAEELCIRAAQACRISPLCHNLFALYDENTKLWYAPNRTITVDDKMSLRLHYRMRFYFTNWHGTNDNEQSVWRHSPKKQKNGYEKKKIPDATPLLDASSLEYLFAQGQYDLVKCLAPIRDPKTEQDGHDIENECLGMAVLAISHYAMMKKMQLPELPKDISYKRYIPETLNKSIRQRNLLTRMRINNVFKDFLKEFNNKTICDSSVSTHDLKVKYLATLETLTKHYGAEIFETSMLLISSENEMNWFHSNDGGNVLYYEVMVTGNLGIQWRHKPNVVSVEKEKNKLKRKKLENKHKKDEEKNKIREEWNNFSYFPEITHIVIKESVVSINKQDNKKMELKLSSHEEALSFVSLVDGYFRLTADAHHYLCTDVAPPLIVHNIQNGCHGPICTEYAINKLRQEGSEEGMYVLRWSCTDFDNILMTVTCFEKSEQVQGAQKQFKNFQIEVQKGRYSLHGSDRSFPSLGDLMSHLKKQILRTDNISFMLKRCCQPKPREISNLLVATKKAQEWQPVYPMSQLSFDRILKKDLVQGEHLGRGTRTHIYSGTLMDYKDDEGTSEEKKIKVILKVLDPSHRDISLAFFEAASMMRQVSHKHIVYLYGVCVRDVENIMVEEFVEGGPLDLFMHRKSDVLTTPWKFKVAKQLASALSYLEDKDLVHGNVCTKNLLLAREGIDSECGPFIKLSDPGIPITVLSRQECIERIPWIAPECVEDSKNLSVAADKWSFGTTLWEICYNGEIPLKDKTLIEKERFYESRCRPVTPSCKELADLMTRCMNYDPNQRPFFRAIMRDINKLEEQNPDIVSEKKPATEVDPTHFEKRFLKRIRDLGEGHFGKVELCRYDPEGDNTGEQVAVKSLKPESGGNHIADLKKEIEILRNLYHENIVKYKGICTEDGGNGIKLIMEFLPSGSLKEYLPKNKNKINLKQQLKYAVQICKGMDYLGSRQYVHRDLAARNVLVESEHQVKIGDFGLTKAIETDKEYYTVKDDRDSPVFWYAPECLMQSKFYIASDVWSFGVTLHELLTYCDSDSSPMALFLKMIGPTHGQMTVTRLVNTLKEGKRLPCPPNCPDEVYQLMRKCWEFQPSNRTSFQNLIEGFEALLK

Experiment [1] deals with Tyk2 (Homo sapiens (Human), UniProt P29597). Briefly: Biochemical JAK kinase assay (LanthaScreen), Tyk2. How it is done: Recombinant GST-tagged JAK enzymes and a GFP-tagged STAT1 peptide substrate were obtained from Life Technologies. Serially diluted compounds were pre-incubated with each of the four JAK enzymes and the substrate in white 384-well microplates (Corning) at ambient temperature for 1 h. ATP was subsequently added to initiate the kinase reactions in 10 μL total volume, with 1% DMSO. […] Kinase reactions were allowed to proceed for 1 hour at ambient temperature before a 10 μL preparation of EDTA (10 mM final concentration) and Tb-anti-pSTAT1 ([…]) antibody (Life Technologies, 2 nM final concentration) in TR-FRET dilution buffer (Life Technologies) was added. The plates were allowed to incubate at ambient temperature for 1 h before being read on the EnVision reader (Perkin Elmer). Emission ratio signals (520 nm/495 nm) were recorded and utilized to calculate the percent inhibition values based on DMSO and background controls. For dose-response analysis, percent inhibition data were plotted vs. compound concentrations, and IC50 values were determined from a 4-parameter robust fit model with the Prism software (GraphPad Software). Results were expressed as pIC50 (negative logarithm of IC50) and subsequently converted to pKi (negative logarithm of dissociation constant, Ki) using the Cheng-Prusoff equation. […]
Background: Time-resolved FRET reads energy transfer from a long-lived donor to a nearby acceptor.

Experiment [2] has as its target JAK3 (Homo sapiens (Human), UniProt P52333). Briefly: Biochemical JAK kinase assay (LanthaScreen), JAK3. On the procedure: (§1) Recombinant GST-tagged JAK enzymes and a GFP-tagged STAT1 peptide substrate were obtained from Life Technologies. Serially diluted compounds were pre-incubated with each of the four JAK enzymes and the substrate in white 384-well microplates (Corning) at ambient temperature for 1 h. ATP was subsequently added to initiate the kinase reactions in 10 μL total volume, with 1% DMSO. […] Kinase reactions were allowed to proceed for 1 hour at ambient temperature before a 10 μL preparation of EDTA (10 mM final concentration) and Tb-anti-pSTAT1 ([…]) antibody (Life Technologies, 2 nM final concentration) in TR-FRET dilution buffer (Life Technologies) was added. The plates were allowed to incubate at ambient temperature for 1 h before being read on the EnVision reader (Perkin Elmer). Emission ratio signals (520 nm/495 nm) were recorded and utilized to calculate the percent inhibition values based on DMSO and background controls. For dose-response analysis, percent inhibition data were plotted vs. compound concentrations, and IC50 values were determined from a 4-parameter robust fit model with the Prism software (GraphPad Software). Results were expressed as pIC50 (negative logarithm of IC50) and subsequently converted to pKi (negative logarithm of dissociation constant, Ki) using the Cheng-Prusoff equation.

The target of experiment [3] is JAK1 (Homo sapiens (Human), UniProt P23458). The experiment can be described thus: Biochemical JAK kinase assay (LanthaScreen), JAK1. On the procedure:
as §1

Each structure is given as a SMILES string.

For `CCc1cc(O)c(F)cc1-c1ccc2c(-c3nc4c([nH]3)CN(C(C)C)[C@H](C(=O)N3CC(C)(N(C)C)C3)C4)n[nH]c2c1` [Compound C-4, (S)-(3-(dimethylamino)-3-methylazetidin-1-yl)(2-(6-(2-ethyl-5-fluoro-4-hydroxyphenyl)-1H-indazol-3-yl)-5-isopropyl-4,5,6,7-tetrahydro-3H-imidazo[4,5-c]pyridin-6-yl)methanone], the Ki in experiment [1] (read-out: Tyk2 pKi (converted)) is 0.398 nM; in experiment [2] (read-out: JAK3 pKi (converted)), 0.316 nM.
For the compound `CCc1cc(O)c(F)cc1-c1ccc2c(-c3nc4c([nH]3)CN(CC)[C@H](C(=O)N3CC(N(C)C)C3)C4)n[nH]c2c1` [Compound C-2, (S)-(3-(dimethylamino)azetidin-1-yl)(5-ethyl-2-(6-(2-ethyl-5-fluoro-4-hydroxyphenyl)-1H-indazol-3-yl)-4,5,6,7-tetrahydro-3H-imidazo[4,5-c]pyridin-6-yl)methanone], in experiment [3], the “JAK1 pKi” value is 10.2.
`CCCN1Cc2[nH]c(-c3n[nH]c4cc(-c5cc(F)c(O)cc5CC)ccc34)nc2C[C@H]1C(=O)N1CC(C)(N(C)C)C1` [Compound C-6, (S)-(3-(dimethylamino)-3-methylazetidin-1-yl)(2-(6-(2-ethyl-5-fluoro-4-hydroxyphenyl)-1H-indazol-3-yl)-5-propyl-4,5,6,7-tetrahydro-3H-imidazo[4,5-c]pyridin-6-yl)methanone]: the “Tyk2 pKi” value in experiment [1] came out at 9.3. Further, the “JAK3 pKi” value in experiment [2] is on record as 10.0. In experiment [3], the “JAK1 pKi” value stood at 10.3.
On to `CCc1cc(O)c(F)cc1-c1ccc2c(-c3nc4c([nH]3)CN(CC)[C@H](C(=O)N3CC(C)(N(C)C)C3)C4)n[nH]c2c1` [Compound C-3, (S)-(3-(dimethylamino)-3-methylazetidin-1-yl)(5-ethyl-2-(6-(2-ethyl-5-fluoro-4-hydroxyphenyl)-1H-indazol-3-yl)-4,5,6,7-tetrahydro-3H-imidazo[4,5-c]pyridin-6-yl)methanone], for which, in experiment [2], the “JAK3 pKi” value is recorded as 9.7. The “JAK1 pKi” value in experiment [3] was determined as 10.3.
